Assay results published in paper PMC7723054.
The other results are listed elsewhere or left out.

T1: LIN28A (human?, UniProt Q9H9Z2 1-209)
T1 sequence: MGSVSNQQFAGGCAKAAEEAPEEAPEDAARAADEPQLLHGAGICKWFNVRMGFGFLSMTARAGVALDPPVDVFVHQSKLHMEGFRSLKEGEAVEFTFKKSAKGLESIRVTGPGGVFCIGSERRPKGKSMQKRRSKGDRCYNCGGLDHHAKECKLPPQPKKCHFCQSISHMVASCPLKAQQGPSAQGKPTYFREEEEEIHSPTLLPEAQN

T2: CIRBP (Homo sapiens, UniProt Q14011 1-172)
T2 sequence: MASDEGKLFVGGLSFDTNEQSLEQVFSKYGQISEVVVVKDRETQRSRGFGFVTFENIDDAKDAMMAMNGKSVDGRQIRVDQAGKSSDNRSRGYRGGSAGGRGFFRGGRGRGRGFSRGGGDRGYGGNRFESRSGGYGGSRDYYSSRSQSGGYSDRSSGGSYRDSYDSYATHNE

T3: DHX36 (Homo sapiens, UniProt Q9H2U1 1-1008)
T3 sequence: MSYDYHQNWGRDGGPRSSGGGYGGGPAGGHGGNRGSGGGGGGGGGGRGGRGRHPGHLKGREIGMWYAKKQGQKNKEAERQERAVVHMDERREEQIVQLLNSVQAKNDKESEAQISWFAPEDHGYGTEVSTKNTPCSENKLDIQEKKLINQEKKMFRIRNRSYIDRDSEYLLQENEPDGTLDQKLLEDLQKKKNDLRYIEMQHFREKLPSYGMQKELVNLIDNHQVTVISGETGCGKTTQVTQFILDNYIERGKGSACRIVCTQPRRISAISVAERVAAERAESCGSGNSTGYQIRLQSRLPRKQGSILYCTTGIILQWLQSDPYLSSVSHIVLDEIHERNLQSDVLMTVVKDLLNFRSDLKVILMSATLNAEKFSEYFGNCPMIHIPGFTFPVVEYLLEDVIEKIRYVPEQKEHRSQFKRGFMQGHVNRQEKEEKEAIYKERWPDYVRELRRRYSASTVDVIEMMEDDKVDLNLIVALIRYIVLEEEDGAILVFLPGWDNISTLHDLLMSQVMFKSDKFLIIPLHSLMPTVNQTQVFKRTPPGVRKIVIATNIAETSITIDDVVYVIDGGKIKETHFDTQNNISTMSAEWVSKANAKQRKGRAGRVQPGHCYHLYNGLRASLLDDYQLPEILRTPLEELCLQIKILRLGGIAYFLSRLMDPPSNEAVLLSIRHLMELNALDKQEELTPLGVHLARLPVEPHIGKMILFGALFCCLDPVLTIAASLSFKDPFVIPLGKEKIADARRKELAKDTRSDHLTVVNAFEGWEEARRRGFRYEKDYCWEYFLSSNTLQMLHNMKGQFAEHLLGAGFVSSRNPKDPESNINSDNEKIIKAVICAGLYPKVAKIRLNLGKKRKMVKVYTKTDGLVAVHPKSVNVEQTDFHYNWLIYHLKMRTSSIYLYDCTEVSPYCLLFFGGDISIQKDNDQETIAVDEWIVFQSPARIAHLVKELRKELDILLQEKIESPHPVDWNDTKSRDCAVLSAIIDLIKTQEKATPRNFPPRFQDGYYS

B1: hsa-mir-6730 (structured_RNA)
RNA: GGGAACCACGCUGAAGGCUAAUUGGAAAGGUGUACGAAGUUUCAGCCAGAGCUGCAGCUGCUCCACCCUGGCUGAAGCUUCGUGCAC
B2: hsa-mir-4271 (structured_RNA)
RNA: GGGAAAGAGUAUCAUAGGGCAUACGUACGGUGUACGAAGUUUCAGCCCUGCAGCCCCCAGGUGGGGGGGCUGAAGCUUCGUGCAC
B3: hsa-mir-1278 (structured_RNA)
RNA: GGGAAGGUCCUUCAUAGGAGAAGACCCAGGUGUACGAAGUUUCAGCACUCCCAGAACUCAUUAAGUUGGUAGUGCUGAAGCUUCGUGCAC
B4: hsa-mir-3200 (structured_RNA)
RNA: GGGACCCGAACGCAAGAGGAUUAACUUCGGUGUACGAAGUUUCAGCAGGUUUGUGUCCAAUACAGUCCACACCUGCUGAAGCUUCGUGCAC
B5: hsa-mir-1252 (structured_RNA)
RNA: GGGAACGCCUUACGGAUCACAAGUUUUCGGUGUACGAAGUUUCAGCUUUAGAAAAGAGAAUUCCAAAGCUGAAGCUUCGUGCAC
B6: hsa-mir-3616 (structured_RNA)
RNA: GGGCGCUGUAUAAUCAUGCAGAUACAAGGGUGUACGAAGUUUCAGCCUCAUGAUAUGUUUGCCCCAUCAGCGUGUCACGAGGCUGAAGCUUCGUGCAC
B7: hsa-mir-4296 (structured_RNA)
RNA: GGGAAGGUCAGGCUUGUUAGGAAUCAUAGGUGUACGAAGUUUCAGCCUCAGAGGGCUGAAGUGGUUGUGGGGAGGGGCUUCUGGGGCUGAAGCUUCGUGCAC
B8: hsa-mir-6133 (structured_RNA)
RNA: GGGAAAGGUACAACUGGCCACCCUACGGGGUGUACGAAGUUUCAGCUUCUGCUGAAGACUGGUCUCUUCAUGUGUGAGGCUGAAGCUUCGUGCAC
B9: hsa-mir-595 (structured_RNA)
RNA: GGGAAACCGUAUGGCAGAUAGCUUAAGCGGUGUACGAAGUUUCAGCCUCAAUGUAGUCUUGUAAGGAACAGGUUGAAGGCUGAAGCUUCGUGCAC
B10: hsa-mir-587 (structured_RNA)
RNA: GGGACAAGCGCAAAGAGGUAUAAAUUCUGGUGUACGAAGUUUCAGCUCACAGGGCUCAGGGAAUGUGUCUGCACCUGUGAGCUGAAGCUUCGUGCAC
B11: hsa-mir-3161 (structured_RNA)
RNA: GGGAACGCCGGUUAACUGGUGUAGACGAGGUGUACGAAGUUUCAGCGAUUGAAGUUGAAUAGUGCGCUGAAGCUUCGUGCAC
B12: hsa-mir-6830 (structured_RNA)
RNA: GGGAGAUUGUGUCAACCGCUAGCCAUAAGGUGUACGAAGUUUCAGCGACAUCCCUCAUCUGUUUCUCACUGGUGUCGCUGAAGCUUCGUGCAC
B13: hsa-mir-3910-1 (structured_RNA)
RNA: GGGAACCGGUGACCUGCCAGCGUAAAUUGGUGUACGAAGUUUCAGCCUUUUAUAUCAAGGCACAUAAAAGGCUGAAGCUUCGUGCAC
B14: hsa-mir-196a-2 (structured_RNA)
RNA: GGGAGUAGCACGUCCCUCACCUAGACGAGGUGUACGAAGUUUCAGCGUUGGGAUUGAGUUUUGAACUCGGCGCUGAAGCUUCGUGCAC
B15: hsa-mir-487b (structured_RNA)
RNA: GGGAAAACUGUGACGGCCAAGCUCAUACGGUGUACGAAGUUUCAGCUGUUCGUUUUGCUCAUGUCGAAUCGCUGAAGCUUCGUGCAC
B16: hsa-mir-5091 (structured_RNA)
RNA: GGGAAUAUAAAGGCUCAGCGGAGUGUACGGUGUACGAAGUUUCAGCGCUGGUCGCGGGUUGUGGGGUUUAGGUCACCGGCGCUGAAGCUUCGUGCAC
B17: hsa-mir-4637 (structured_RNA)
RNA: GGGAACUGCUAGUGGACGCAGAAGCUACGGUGUACGAAGUUUCAGCAGUAUUUUAAUCAUAGAUUGUAUUUAGUUAGUUUUUAAUACUGCUGAAGCUUCGUGCAC
B18: hsa-mir-601 (structured_RNA)
RNA: GGGAGAGUUUUGAGCGAAAUCAACGGAAGGUGUACGAAGUUUCAGCGAGUCAGAAAAACUACGCUGAAGCUUCGUGCAC
B19: hsa-mir-218-2 (structured_RNA)
RNA: GGGACACGAGGACGACUGUAUCCUUAGGGGUGUACGAAGUUUCAGCCAUGUGGUGGAACGAUGGAAACGGAACAUGGCUGAAGCUUCGUGCAC
B20: hsa-mir-7852 (structured_RNA)
RNA: GGGAACACUGUACUAUGACCGUCAGCCAGGUGUACGAAGUUUCAGCCAUACAUAUGCCUACUACUACUUUCAUAUGUAGGCAUAUGUAUGGCUGAAGCUUCGUGCAC
B21: hsa-mir-7703 (structured_RNA)
RNA: GGGAGCAGCGCUCAAAGGAACUAAGAUCGGUGUACGAAGUUUCAGCGGGGGCAGGCAGGGGAUUGGCUAAGAACCUGACUCUUGCGCUGAAGCUUCGUGCAC
B22: hsa-let-7a-3 (structured_RNA)
RNA: GGGAUCGACAAUGCGUUGCACACGUUGCGGUGUACGAAGUUUCAGCAUAGUUUGGGGCUCUGCCCUGCUAUGGGAUAACUAUGCUGAAGCUUCGUGCAC

These binders were tested against U1A (Homo sapiens, UniProt P09012) (assay: FOREST: bead pull-down of RNA structure library v1, barcode microarray; U1A/LIN28A: 20 mM HEPES pH 7.5, 80 mM KCl, 20 mM NaCl, 10% glycerol, 2 mM DTT, 0.1 ug/uL BSA, 4 C; BG4/CIRBP/DHX36: 10 mM Tris-HCl pH 7.5, 100 mM KCl (or LiCl),; high values mean tight binding).
Work on B1 yielded a binding signal of 0.57 z-score.
In the case of B2, the binding signal is reported as 2.16 z-score.
With B3 the binding signal was 0.562 z-score.
In the case of B4, the binding signal is reported as 0.559 z-score.
Binder B5 has a binding signal of 0.558 z-score.
Binder B6 has a binding signal of 0.558 z-score.
B7 showed a binding signal of 0.553 z-score.
With B8 the binding signal was 0.552 z-score.
With B9 the binding signal was 0.545 z-score.
In the case of B10, the binding signal is reported as 0.544 z-score.
B11 gave a binding signal of 0.544 z-score.
For B12, the binding signal was 0.544 z-score.
Binder B13 has a binding signal of 2.13 z-score.
With B14 the binding signal was 0.543 z-score.
Work on B15 yielded a binding signal of 0.542 z-score.
For B16, the binding signal was 0.541 z-score.
Work on B17 yielded a binding signal of 0.539 z-score.
Work on B18 yielded a binding signal of 0.537 z-score.
Binder B19 has a binding signal of 0.537 z-score.
Binder B20 has a binding signal of 0.535 z-score.
Work on B21 yielded a binding signal of 0.533 z-score.
For B22, the binding signal was 0.531 z-score.

What follows are binders tested against T1, LIN28A in the same assay as above.
B1 gave a binding signal of 0.97 z-score.
Binder B2 has a binding signal of -0.561 z-score.
B3 showed a binding signal of -1.26 z-score.
B4 showed a binding signal of 0.248 z-score.
B5 showed a binding signal of -0.751 z-score.
Work on B6 yielded a binding signal of 1.36 z-score.
B7 gave a binding signal of 2.73 z-score.
Binder B8 has a binding signal of -0.583 z-score.
B9 was tested, and the binding signal was -0.247 z-score.
For B10, the binding signal was -0.00593 z-score.
Work on B11 yielded a binding signal of 0.139 z-score.
With B12 the binding signal was -0.398 z-score.
B13 was tested, and the binding signal was -0.281 z-score.
B14 showed a binding signal of -0.318 z-score.
In the case of B15, the binding signal is reported as -0.292 z-score.
Binder B16 has a binding signal of 2.68 z-score.
B17 showed a binding signal of 0.0946 z-score.
In the case of B18, the binding signal is reported as 0.435 z-score.
In the case of B19, the binding signal is reported as 0.698 z-score.
Binder B20 has a binding signal of -0.295 z-score.
In the case of B21, the binding signal is reported as -0.547 z-score.
B22 was tested, and the binding signal was 0.158 z-score.

Each binder was assayed against T2, CIRBP in the same assay as above.
Binder B1 has a binding signal of 1.35 z-score.
With B2 the binding signal was -0.0838 z-score.
For B3, the binding signal was -0.0859 z-score.
Work on B4 yielded a binding signal of -0.191 z-score.
B5 showed a binding signal of 0.765 z-score.
For B6, the binding signal was -0.288 z-score.
Binder B7 has a binding signal of 1.75 z-score.
B8 showed a binding signal of -1.31 z-score.
B9 was tested, and the binding signal was -1.25 z-score.
Work on B10 yielded a binding signal of 0.265 z-score.
B11 was tested, and the binding signal was 0.0215 z-score.
In the case of B12, the binding signal is reported as 0.539 z-score.
B13 gave a binding signal of -0.316 z-score.
Binder B14 has a binding signal of 1.03 z-score.
B15 gave a binding signal of 1.28 z-score.
B16 gave a binding signal of 1.65 z-score.
Work on B17 yielded a binding signal of 0.474 z-score.
B18 was tested, and the binding signal was 0.744 z-score.
With B19 the binding signal was 0.111 z-score.
B20 gave a binding signal of 1.07 z-score.
B21 showed a binding signal of 0.785 z-score.
Binder B22 has a binding signal of -0.404 z-score.

What follows are binders tested against T3, DHX36 in the same assay as above.
For B1, the binding signal was 0.646 z-score.
In the case of B2, the binding signal is reported as -0.523 z-score.
For B3, the binding signal was -1.04 z-score.
Binder B4 has a binding signal of 0.366 z-score.
For B5, the binding signal was 0.388 z-score.
In the case of B6, the binding signal is reported as -0.0611 z-score.
B7 was tested, and the binding signal was 5.76 z-score.
Binder B8 has a binding signal of -0.612 z-score.
B9 showed a binding signal of -0.799 z-score.
For B10, the binding signal was 0.685 z-score.
Binder B11 has a binding signal of -0.335 z-score.
With B12 the binding signal was -0.0247 z-score.
With B13 the binding signal was -0.268 z-score.
B14 showed a binding signal of -0.277 z-score.
B15 gave a binding signal of 0.396 z-score.
With B16 the binding signal was 5.17 z-score.
Work on B17 yielded a binding signal of -0.262 z-score.
B18 showed a binding signal of 0.642 z-score.
B19 showed a binding signal of 1.19 z-score.
For B20, the binding signal was 0.52 z-score.
B21 showed a binding signal of 2.59 z-score.
With B22 the binding signal was -0.313 z-score.
